Tests used:
[1] = tested on: KOR; conditions: cited from earlier work
[2] = target: hKOR (OPRK1) (Homo sapiens, UniProt P41145); conditions: Table S1; normalized to baseline and maximum response of 10 μM U69,593
[3] = target: hKOR (Homo sapiens, UniProt P41145); conditions: Table S1; normalized to 10 μM U69,593; values in brackets where the curve did not converge
[4] = estimated; cited from earlier work
[5] = to 8-epi-SalA under acidic, basic, and thermal conditions; cited from earlier work

Chains of the proteins cited; added tags and fusions are not shown. Lines headed by an entry give the natural chain unless they say otherwise; changes in a name come on top.
UniProt P41145: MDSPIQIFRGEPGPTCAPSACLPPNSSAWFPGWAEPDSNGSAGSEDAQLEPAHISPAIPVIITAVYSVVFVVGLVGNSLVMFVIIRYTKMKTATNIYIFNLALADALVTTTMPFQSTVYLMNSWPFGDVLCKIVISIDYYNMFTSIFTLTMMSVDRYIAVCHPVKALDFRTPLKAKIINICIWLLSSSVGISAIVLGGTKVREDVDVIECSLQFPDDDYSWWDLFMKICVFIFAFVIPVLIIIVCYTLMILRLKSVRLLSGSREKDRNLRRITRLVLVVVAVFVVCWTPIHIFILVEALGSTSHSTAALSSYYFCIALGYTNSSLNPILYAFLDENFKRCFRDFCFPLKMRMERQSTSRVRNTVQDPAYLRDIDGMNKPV

C16-bromo-salvinorin A
bias factor, G protein signaling over β-arrestin2 recruitment [1]: 7.7

CN(C(=O)Cc1ccccc1)[C@H]1CC[C@@]2(CCCO2)C[C@@H]1N1CCCC1
cAMP Emax [2]: 100% | βarrestin2 Emax [3]: 100%

COC(=O)[C@@H]1C[C@H](OC(C)=O)C(=O)[C@H]2[C@@]1(C)CC[C@H]1C(=O)O[C@H](c3ccoc3)C[C@]21C
total human brain content causing psychoactive effects [4]: 10 µg | Keq of C8 epimerization [5]: 2.5

Source: paper PMC10450872 (ACS Central Science, 2023)
